Experimental data taken from patent publication US20150018665A1, “MOLECULAR AND CELLULAR IMAGING USING ENGINEERED HEMODYNAMIC RESPONSES” (Massachusetts Institute of Technology, priority 2013, published 2015).

The chains behind the UniProt entries cited, without tags or fusion partners. Residues count along the entry.
UniProt O60894, 27-148: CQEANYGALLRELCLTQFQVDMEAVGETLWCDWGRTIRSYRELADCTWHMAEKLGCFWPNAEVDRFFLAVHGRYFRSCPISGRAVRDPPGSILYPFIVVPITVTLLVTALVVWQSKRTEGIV
UniProt Q16602, 23-461: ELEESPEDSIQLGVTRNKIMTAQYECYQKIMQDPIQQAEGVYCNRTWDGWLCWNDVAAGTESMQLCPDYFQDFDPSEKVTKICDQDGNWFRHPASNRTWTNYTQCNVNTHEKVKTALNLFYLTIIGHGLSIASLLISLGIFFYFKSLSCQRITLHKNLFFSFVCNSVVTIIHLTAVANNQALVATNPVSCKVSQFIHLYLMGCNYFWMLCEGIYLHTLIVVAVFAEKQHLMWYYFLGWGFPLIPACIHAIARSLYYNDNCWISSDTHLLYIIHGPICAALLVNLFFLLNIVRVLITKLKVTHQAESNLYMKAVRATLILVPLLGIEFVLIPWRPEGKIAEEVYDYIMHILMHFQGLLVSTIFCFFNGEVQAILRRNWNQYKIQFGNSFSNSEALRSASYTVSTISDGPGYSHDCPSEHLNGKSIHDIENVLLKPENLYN

Key:
[1] = system: brain vasculature; assay: MRI of hemodynamic response to CGRP in the brains of live animals; type: in vivo, rat
Protocol: (§1) Control infusion of cerebrospinal fluid on the right side produced no significant changes; group data (n=4) are quantified in FIG. 3D.
In some embodiments, this molecular imaging approach is referred to as “engineered hemodynamic” contrast. In some embodiments, the approach is useful for ultrasensitive imaging both in TBI and in other diseases associated with BBB dysfunction.
Efficacy for imaging BBB leakage in TBI is tested using rats subjected to pressure shocks in a blast tube shown to simulate IED exposure in humans. This fully validated model enables sublethal blasts with quantitatively controlled pressure waveforms to be reproducibly administered with 100% survival of subjects. […] Data is transformed and processed in Matlab, using analysis routines already established for evaluation of hemodynamic responses.

[2] = system: exposed rat cortex; assay: Optical imaging of exposed cortex during CGRP infusion (cranial window); type: in vivo; details: infusion to exposed rat cortex, cranial window preparation
Description: as §1

[3] = system: brain vasculature; details: intravenously injected, intact BBB; cited from earlier work
[4] = system: intracerebral arterioles; details: cited from earlier work
[5] = target: T1, heterodimeric CGRP receptor, comprised of human CALCRL and RAMP1 (Homo sapiens, UniProt O60894+Q16602); assay: Cell-based bioassay of CGRP receptor activation (HEK293FT CGRP reporter cells, cAMP-dependent luciferase)
T1 construct: expressed in transfected cells; host or cells: HEK293FT (lentiviral transduction, antibiotic selection)
Description: HEK293FT cell lines carrying the following lentiviral constructs were used:
Glo22F is a gene, offered by Promega Corp., encoding an engineered luciferase whose activity is allosterically modulated by cyclic AMP (Fan et al. “Novel Genetically Encoded Biosensors Using Firefly Luciferase”. ACS Chem. Biol., 2008, 3 (6), pp 346-351 DOI: 10.1021/cb8000414). This luminescent cAMP reporter system offers relatively fast readouts from live cells and strong signal-to-noise ratio.

Row | effect of terminal modification on potency (in words) ([5]; FIG. 4C, 4D) | activation of the CGRP receptor ([5]; cell culture) | potency of CGRP receptor activation ([5]; cell culture) | Substance | MRI signal change ([1]; 100 nM infusion through cannula in left hemisphere, FIG. 3C, Example 1) | MRI signal change ([1]; 500 nM infusion through cannula in left hemisphere, FIG. 3C legend) | signal changes, intravascular delivery with perturbed BBB ([1]; delivered intravascularly to animals with perturbed BBB) | dynamic MRI signal changes ([1]; intracranial infusion of 0.1 μM peptide solution) | contrast in MRI ([1]; intracranial injection, nanomolar-scale concentrations) | contrast in MRI, intravascular administration ([1]; intravascular administration) | signal changes after peripheral injection ([1]; peripherally injected into tail vein) | optical imaging changes [2] | vasodilatory effect in the brain vasculature [3] | EC50 ([4]; intracerebral arterioles, read-out: 50%-effective concentration (EC50) for vasodilation) [nM] | EC50 ([4]; read-out: concentration of half-maximal effect (vasodilator)) [nM]
1 | – | – | – | ACDTATCVTHRLAGLLSRSGGVVKNNFVPTNVGSKAF [CGRP, synthetic CGRP from Sigma] | significant signal change | significant signal change | analogous signal changes | several percent | detectable contrast | no contrast is induced | no detectable signal changes | detected | no detectable vasodilatory effect | < 10 | < 10
2 | partially restores potency | fully activates | nanomolar | CGRP-Gly: human alpha CGRP extended with a single glycine residue in lieu of C-terminal amidation (SEQ ID NO: 15) (ACDTATCVTHRLAGLLSRSGGVVKNNFVPTNVGSKAFG; haCGRP-Gly) | – | – | – | – | – | – | – | – | – | – | –

Where two headings read alike, the source gives them in different places.
